In general, Kd refers to the constant that tells how readily two partners part at equilibrium. In general, stoichiometry N refers to a count of units in the complex or per binding partner.

These results are taken from article PMC4906314, “Direct interaction of beta-amyloid with Na,K-ATPase as a putative regulator of the enzyme function” (Scientific Reports, 2016).

The target in test [1] is Na,K-ATPase (α1β1 isozyme) from duck salt glands (duck).
Test [2] shares this target. As to the kind of experiment: ITC; MicroCal iTC200, 25 °C, 10 mM imidazole pH 7.5, 130 mM NaCl, 30 mM KCl, 3 mM MgCl2; Aβ(1-42) (50-200 μM) in the syringe, Na,K-ATPase (5-20 μM) in the cell; one set of binding sites. (In ITC the heat of successive injections is recorded.)

Take Synthetic peptide Aβ(1-42): the hydrolytic activity of purified Na,K-ATPase (ouabain-sensitive ATP cleavage, 37 °C, 3 mM ATP); Aβ(1-42) concentration at half activity (IC50) in test [1] turned out to be 24 µM. For the same substance, in test [2], the Kd was 3 µM, the dH is -13.2 kcal/mol and the stoichiometry N worked out at 1.1.
